US20250283871A1, “COMPOSITIONS AND METHODS FOR MODULATING THE INTERACTION BETWEEN SS18-SSX FUSION ONCOPROTEIN AND NUCLEOSOMES” (Dana-Farber Cancer Institute, Inc., priority 2020, published 2025)

What was measured:
[1] = target: mammalian mononucleosomes (HEK293T, MNase) carrying histone H3 K79me1 (mammalian (HEK293T cells)) (UniProt P68431); assay: MBP-SSX1 78aa pull-down of HEK293T mononucleosomes, targeted quantitative histone MS; replicate 2 (MM05_E01)
[2] = target: mammalian mononucleosomes (HEK293T, MNase) carrying histone H3 K79me2 (mammalian (HEK293T cells)) (UniProt P68431); assay: as above
[3] = target: mammalian mononucleosomes (HEK293T, MNase) carrying histone H3 K56me0 (mammalian (HEK293T cells)) (UniProt P68431); assay: as above
[4] = target: H2AZ(1to19)ac0 histone form in mammalian mononucleosomes from HEK-293T cells (mammalian (HEK-293T cells)) (UniProt P0C0S5); assay: MBP-SSX1 78aa pull-down of HEK293T mononucleosomes, targeted histone MS, sample MM04_D01
[5] = target: H2A(4to11)K5ac1 histone form in mammalian mononucleosomes from HEK-293T cells (mammalian (HEK-293T cells)) (UniProt P0C0S8); assay: as above
[6] = target: H4(4to17)K8ac1K12ac1me0 histone form in mammalian mononucleosomes from HEK-293T cells (mammalian (HEK-293T cells)) (UniProt P62805); assay: as above
[7] = target: H4(4to17)K5ac1K8ac1K12ac1K16ac1me0 histone form in mammalian mononucleosomes from HEK-293T cells (mammalian (HEK-293T cells)) (UniProt P62805); assay: as above
[8] = target: H4(20to23)K20me2 histone form in mammalian mononucleosomes from HEK-293T cells (mammalian (HEK-293T cells)) (UniProt P62805); assay: as above
[9] = target: H2A(4to11)K9ac1 histone form in mammalian mononucleosomes from HEK-293T cells (mammalian (HEK-293T cells)) (UniProt P0C0S8); assay: as above
[10] = target: H2AZ(1to19)K4ac1 histone form in mammalian mononucleosomes from HEK-293T cells (mammalian (HEK-293T cells)) (UniProt P0C0S5); assay: as above
[11] = target: H3K9me2S10ph1K14ac0 histone form in mammalian mononucleosomes from HEK-293T cells (mammalian (HEK-293T cells)) (UniProt P68431); assay: as above
[12] = target: H3K4me2 histone form in mammalian mononucleosomes from HEK-293T cells (mammalian (HEK-293T cells)) (UniProt P68431); assay: as above
[13] = target: H2A(4to11)K5ac1K9ac1 histone form in mammalian mononucleosomes from HEK-293T cells (mammalian (HEK-293T cells)) (UniProt P0C0S8); assay: as above
[14] = target: H4(4to17)K5ac1K8ac1K16ac1me0 histone form in mammalian mononucleosomes from HEK-293T cells (mammalian (HEK-293T cells)) (UniProt P62805); assay: as above
[15] = target: H2A(12to17)K13ac1 histone form in mammalian mononucleosomes from HEK-293T cells (mammalian (HEK-293T cells)) (UniProt P0C0S8); assay: as above
[16] = target: H4(20to23)K20me3 histone form in mammalian mononucleosomes from HEK-293T cells (mammalian (HEK-293T cells)) (UniProt P62805); assay: as above
[17] = target: HEK-293T mononucleosomes with histone H4(4to17)K5ac1K16ac1me0 (mammalian (HEK-293T cells)) (UniProt P62805); assay: MBP-SSX1 78aa pull-down of HEK293T mononucleosomes, targeted quantitative histone MS, replicate 2
[18] = target: HEK-293T mononucleosomes with histone H3K9me1S10ph1K14ac1 (mammalian (HEK-293T cells)) (UniProt P68431); assay: as above
[19] = target: HEK-293T mononucleosomes with histone H2AZ(1to19)K4ac1 (mammalian (HEK-293T cells)) (UniProt P0C0S5); assay: as above
[20] = target: HEK-293T mononucleosomes with histone H4(4to17)K16ac1me0 (mammalian (HEK-293T cells)) (UniProt P62805); assay: as above
[21] = target: HEK-293T mononucleosomes with histone H3K9me2S10ph1K14ac1 (mammalian (HEK-293T cells)) (UniProt P68431); assay: as above
[22] = target: HEK-293T mononucleosomes with histone H3K9me3S10ph1K14ac0 (mammalian (HEK-293T cells)) (UniProt P68431); assay: as above

MBP-SSX1 (78aa) (from UniProt P0AEX9 27-392)
log2 normalized (Light/Heavy) intensity ratio of the histone peptide [1]: 0.54 log2
log2 normalized (Light/Heavy) intensity ratio of the histone peptide [2]: 0.557 log2
log2 normalized (Light/Heavy) intensity ratio of the histone peptide [3]: 0.297 log2
log2 normalized (Light/Heavy) intensity ratio [4]: -0.784 log2
log2 normalized (Light/Heavy) intensity ratio [5]: 0.569 log2
log2 normalized (Light/Heavy) intensity ratio [6]: -0.198 log2
log2 normalized (Light/Heavy) intensity ratio [7]: 0.276 log2
log2 normalized (Light/Heavy) intensity ratio [8]: -0.414 log2
log2 normalized (Light/Heavy) intensity ratio [9]: -0.254 log2
log2 normalized (Light/Heavy) intensity ratio [10]: -0.217 log2
log2 normalized (Light/Heavy) intensity ratio [11]: -0.683 log2
log2 normalized (Light/Heavy) intensity ratio [12]: 0.778 log2
log2 normalized (Light/Heavy) intensity ratio [13]: -0.031 log2
log2 normalized (Light/Heavy) intensity ratio [14]: 0.474 log2
log2 normalized (Light/Heavy) intensity ratio [15]: 0.032 log2
log2 normalized (Light/Heavy) intensity ratio [16]: -0.109 log2
log2 (Light/Heavy) ratio normalized to average of pull down input controls [17]: -0.272 log2
log2 (Light/Heavy) ratio normalized to average of pull down input controls [18]: 0.451 log2
log2 (Light/Heavy) ratio normalized to average of pull down input controls [19]: -0.894 log2
log2 (Light/Heavy) ratio normalized to average of pull down input controls [20]: -0.106 log2
log2 (Light/Heavy) ratio normalized to average of pull down input controls [21]: 1.01 log2
log2 (Light/Heavy) ratio normalized to average of pull down input controls [22]: -0.24 log2
